Laboratory results taken from US9375443B2 (Signal Pharmaceuticals, LLC, priority 2012, dated 2016).

Test system: H1975
Test: Proliferation Assays (NSCLC cell line sensitivity)
Format: cell-based
Details: Homo sapiens, NCI-H1975, ACA, KRAS WT, EGFR L858R, T790M

## C#Cc1cccc(Nc2ncnc3cc(OCCOC)c(OCCOC)cc23)c1 [Erlotinib, erlotinib]
  IC50: > 10 µM
